Target: T1, rh-integrin α4β7/LPAM-1 (Homo sapiens, UniProt P13612+P26010)
T1 sequence (P13612 34-977 limits assumed): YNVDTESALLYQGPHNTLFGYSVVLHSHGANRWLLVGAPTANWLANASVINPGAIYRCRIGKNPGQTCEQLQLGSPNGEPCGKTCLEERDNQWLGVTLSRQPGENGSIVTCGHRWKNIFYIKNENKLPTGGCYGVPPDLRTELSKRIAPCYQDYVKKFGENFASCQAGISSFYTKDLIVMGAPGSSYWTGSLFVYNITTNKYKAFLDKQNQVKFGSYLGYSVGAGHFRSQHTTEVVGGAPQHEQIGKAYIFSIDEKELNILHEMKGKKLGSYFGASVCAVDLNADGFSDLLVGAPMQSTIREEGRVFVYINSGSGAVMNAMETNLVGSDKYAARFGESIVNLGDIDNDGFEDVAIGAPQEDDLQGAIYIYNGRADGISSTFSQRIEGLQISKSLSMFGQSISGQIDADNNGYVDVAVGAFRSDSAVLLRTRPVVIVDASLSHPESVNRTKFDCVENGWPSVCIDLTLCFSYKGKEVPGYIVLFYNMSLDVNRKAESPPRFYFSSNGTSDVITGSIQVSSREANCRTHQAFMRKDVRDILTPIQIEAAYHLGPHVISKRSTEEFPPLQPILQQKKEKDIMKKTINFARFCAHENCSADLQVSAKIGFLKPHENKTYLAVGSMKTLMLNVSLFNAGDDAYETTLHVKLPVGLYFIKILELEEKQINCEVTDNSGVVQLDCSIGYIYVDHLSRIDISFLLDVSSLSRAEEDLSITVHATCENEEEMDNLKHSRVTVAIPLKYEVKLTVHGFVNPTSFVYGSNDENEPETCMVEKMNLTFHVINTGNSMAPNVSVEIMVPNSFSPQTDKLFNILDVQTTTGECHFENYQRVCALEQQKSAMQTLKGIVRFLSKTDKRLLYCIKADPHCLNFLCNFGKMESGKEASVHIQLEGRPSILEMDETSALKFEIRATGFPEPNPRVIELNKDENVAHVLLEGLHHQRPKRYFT
T1 sequence (P26010 20-723 limits assumed): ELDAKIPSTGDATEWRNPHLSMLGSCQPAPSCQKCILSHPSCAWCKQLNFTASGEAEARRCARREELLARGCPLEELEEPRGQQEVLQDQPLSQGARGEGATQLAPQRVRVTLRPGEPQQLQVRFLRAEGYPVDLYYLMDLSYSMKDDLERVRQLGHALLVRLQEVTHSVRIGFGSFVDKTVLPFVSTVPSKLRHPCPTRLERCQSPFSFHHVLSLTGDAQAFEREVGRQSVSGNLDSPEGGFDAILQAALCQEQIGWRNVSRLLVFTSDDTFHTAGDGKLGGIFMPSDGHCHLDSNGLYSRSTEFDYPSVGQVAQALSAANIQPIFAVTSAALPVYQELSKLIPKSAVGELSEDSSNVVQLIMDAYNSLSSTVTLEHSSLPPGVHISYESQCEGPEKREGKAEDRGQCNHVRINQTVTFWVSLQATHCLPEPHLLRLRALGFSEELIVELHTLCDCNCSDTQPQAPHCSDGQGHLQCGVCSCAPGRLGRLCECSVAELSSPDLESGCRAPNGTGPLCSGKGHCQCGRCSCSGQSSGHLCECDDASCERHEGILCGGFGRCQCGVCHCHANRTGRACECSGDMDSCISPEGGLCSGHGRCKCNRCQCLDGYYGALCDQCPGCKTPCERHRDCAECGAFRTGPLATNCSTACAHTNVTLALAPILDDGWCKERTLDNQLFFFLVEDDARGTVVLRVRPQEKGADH
Test: α4β7-MadCAM Competition ELISA (Example 4)
Settings: IC50, Table 3 Representative compounds; inhibition of MAdCAM binding to coated α4β7
Procedure: After washing with wash buffer, 200 μL assay buffer was added to each well and incubated for one hour at 28° C. After another wash with wash buffer, 100 μL of a MAdCAM and peptide mixture in assay buffer was added to each well and incubated for one hour at 28° C., followed by washing with wash buffer.

CCCC[C@@H]1NC(=O)[C@@H]2CCCN2C(=O)[C@@H]2CSCc3cc(cc(c3)OCCCCCCO/N=C/C(=O)N[C@@H](CCC(N)=O)C(=O)N2)CSC[C@@H](C(N)=O)NC(=O)[C@H]([C@@H](C)O)NC(=O)[C@H](C)NC(=O)[C@H]([C@@H](C)CC)NC(=O)[C@H](CC(=O)O)NC1=O [compound 64, TSL6-SQCP{Nle}DIATC]
IC50: 10.7 µM

Source: patent US20230145835A1, “Modulators of Alpha-4-beta-7 Integrin and MAdCAM” (48HD Biopharma Inc., priority 2021, published 2023)
